As usually defined, the IC50 is the midpoint of a concentration-inhibition curve.

Chains of the proteins cited; added tags and fusions are not shown. Lines headed by an entry give the natural chain unless they say otherwise; changes in a name come on top.
UniProt P43088: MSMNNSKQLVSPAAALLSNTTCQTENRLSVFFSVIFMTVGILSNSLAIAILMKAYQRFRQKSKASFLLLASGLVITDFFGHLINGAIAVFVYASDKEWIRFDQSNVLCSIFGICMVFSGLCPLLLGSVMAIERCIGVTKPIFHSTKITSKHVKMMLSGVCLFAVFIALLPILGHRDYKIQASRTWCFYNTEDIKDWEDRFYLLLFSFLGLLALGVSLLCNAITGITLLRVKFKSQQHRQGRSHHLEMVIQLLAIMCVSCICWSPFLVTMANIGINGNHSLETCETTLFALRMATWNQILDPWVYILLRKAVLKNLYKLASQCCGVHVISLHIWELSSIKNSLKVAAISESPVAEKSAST

IC50 data for three compounds are collected here from patent US10117864B2, “Substituted N-bicyclo-2-aryl-quinolin-4-carboxamides and use thereof” (BAYER PHARMA AKTIENGESELLSCHAFT, priority 2015, dated 2018).

This test has as its target human FP receptor (Homo sapiens (Human), UniProt P43088). The experiment in a line: In vitro test of inhibition of human FP receptor activity (PGF2α-induced calcium flux in FP-expressing CHEM1 cells). Type of test: cell-based. Conditions: PGF2α-induced (3 nM) calcium flux, some as mean values from multiple independent determinations. From the text:
• CRTH2 chemoattractant receptor-homologous molecule expressed on T helper type 2 cells • DMEM Dulbecco's modified Eagle's medium • DMSO dimethyl sulfoxide • DP PGD2 receptor • EC50 half-maximum effective concentration • Em emission • EP PGE2 receptor • Ex excitation • from Company (source) • FCS fetal calf serum • FP PGF2α receptor • HEPES 2-[4-(2-hydroxyethyl)piperazin-1-yl]ethanesulfonic acid • IC50 half-maximum inhibitory concentration • IP PGI2 receptor • MES 2-(N-morpholino)ethanesulfonic acid • Pen/Strep penicillin/streptomycin • PGD2 prostaglandin D2 • PGE2 prostaglandin E2 • PGF2α prostaglandin F2α • PGI2 prostaglandin I2 • TC tissue culture • TP thromboxane A2 receptor • Tris tris(hydroxymethyl)aminomethane • v/v volume to volume ratio (of a solution) • w/w weight to weight ratio (of a solution) B-1. In Vitro Test of Inhibition of Human FP Receptor Activity
For the characterization of test substances in respect of FP antagonism, PGF2α-induced calcium flux in FP-expressing CHEM1 cells (Millipore, HTS093C) was used.
Prior to the measurement, the medium is replaced by 30 μl of Fluo-8 AM loading buffer [calcium-free Tyrode (130 mM NaCl, 5 mM KCl, 20 mM HEPES, 1 mM MgCl2, 4.8 mM NaHCO3, pH 7.4), 2 mM CaCl2, 1× SmartBlock (from CANDOR Bioscience GmbH), 4.5 mM Probenecid, 5 μM Fluo-8 AM, 0.016% Pluronic®, 0.04% Brilliant black] and incubated at 37° C./5% CO2 for 30 minutes. […] 10 μl of the prediluted substance solution are added to the Fluo-8-laden cells and incubated at 37° C./5% CO2 for 10 minutes. The FP receptor is activated by adding 20 μl of 3 nM (final concentration) PGF2α in calcium-free Tyrode/2 mM CaCl2/0.04% Brilliant black, and the calcium flux is determined by measuring the fluorescence at ex. 470 nm/[…].
Table 1 below lists the IC50 values from this assay for individual working examples of the invention (some as mean values from multiple independent individual determinations): […]
On the technique in general: Calcium assays in cells follow changes in intracellular calcium, usually with a dye or a luminescent sensor.
In the case of `Cc1c(-c2ccccc2)nc2ccc(Br)cc2c1C(=O)NC12CCC(C(=O)O)(CC1)C(F)C2` (racemic) [Example 60, 4-{[(6-Bromo-3-methyl-2-phenylquinolin-4-yl)carbonyl]amino}-2-fluorobicyclo [2.2.2]octane-1-carboxylic acid (racemate)], the 50% inhibitory concentration (IC50) was 197 nM.
To `Cc1c(-c2ccccc2)nc2ccc(Br)cc2c1C(=O)NC12CCC(C(=O)O)(CC1)C(F)C2` (single isomer, unassigned; enantiomer 1) [Example 61, (−)-4-{[(6-Bromo-3-methyl-2-phenylquinolin-4-yl)carbonyl]amino}-2-fluorobicyclo[2.2.2]octane-1-carboxylic acid (enantiomer 1)] belongs 83 nM.
To `Cc1c(-c2ccccc2)nc2ccc(Br)cc2c1C(=O)NC12CCC(C(=O)O)(CC1)C(F)C2` (single isomer, unassigned; enantiomer 2) [Example 62, (+)-4-{[(6-Bromo-3-methyl-2-phenylquinolin-4-yl)carbonyl]amino}-2-fluorobicyclo[2.2.2]octane-1-carboxylic acid (enantiomer 2)] belongs 193 nM.
